{
  "source": "patent US5308869A",
  "about": "“Substituted amidines having high binding to the sigma receptor and the use thereof” (priority 1992, dated 1994)",
  "system": "sigma receptor",
  "test": "Sigma receptor binding assay, [^3 H]DTG, guinea pig brain membrane homogenates",
  "conditions": "guinea pig brain membranes; drug specificity profile",
  "data": [
    {"smiles": "CC1C2Cc3ccc(O)cc3C1(C)CCN2CC1CC1", "note": "(single isomer, unassigned; (+)) [(+)cyclazocine]", "values": [
      {"measurement": "Binding to / selectivity at [^3 H]DTG-labelled sigma sites", "result": "stereoselectivity for dextrorotatory isomers"}
    ]}
  ]
}
